## Binding of CDR-mutated scFvs to a peptide of the spike HR2 region

The measurements come from Engelhart et al. 2022 (doi:10.1038/s41597-022-01779-4) through the FLAb antibody collection.

Binding partner: SARS-CoV-2 spike HR2 peptide, sequence PDVDLGDISGINAS.

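Variants in AAYL51 differ from the parent at up to three CDR positions; double and triple changes were sampled at random. The scFvs were displayed on barcoded MATa yeast, the peptide on MATalpha yeast. Mating (16 h, 30 °C) was followed by selection of diploids and sequencing of their barcodes. Scores were corrected for input abundance and mapped to Kd with protein pairs of known affinity run in the same pool. Mating was done three times.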

Each scFv is VL, a (GGGGS)3 linker, VH, as in the parent Ab-91, and differs from it in the CDRs of the heavy chain only.
VL: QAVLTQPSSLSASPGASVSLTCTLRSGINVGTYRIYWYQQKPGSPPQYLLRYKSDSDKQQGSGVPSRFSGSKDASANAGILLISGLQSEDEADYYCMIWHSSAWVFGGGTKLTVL
VH: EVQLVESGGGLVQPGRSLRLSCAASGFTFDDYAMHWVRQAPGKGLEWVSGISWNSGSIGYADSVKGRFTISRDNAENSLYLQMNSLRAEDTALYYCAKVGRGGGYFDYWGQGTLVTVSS

Substitutions are numbered in sequence along the VH above, starting at 1 (not Kabat).
The read-out is the apparent dissociation constant on a log10 scale (nM): the lower, the stronger.
A mean of the replicates is given; it leaves out those without a signal.
"nd" means that the variant was in the library but no mating with the target was seen in any replicate; the authors take this as a sign of poor binding, and no number exists.
For reference, the parent read 1.86 as the reference entry and 0.88 as a member of this library.
Background: pairings of library AAYL51 with three empty control strains gave a value in 21% of cases (median 4.54, 5th percentile 3.26). Values in that range, when seen in few replicates, are hard to tell from nonspecific mating.

| changes | mean log10 Kd (nM) | seen in |
|---|---|---|
| Y32D K65Y | nd | 0 of 3 |
| I58Q S63V G103Y | nd | 0 of 3 |
| Y60P S63E Y108H | 5.56 | 2 of 3 |
| D62Q V64W Y108G | 3.91 | 1 of 3 |
| F27G F29Y D31S | 5.08 | 1 of 3 |
| G56E A61H G104N | 4.57 | 2 of 3 |
| D30P A33F R101M | 3.73 | 1 of 3 |
| T28S I58Y G59Y | nd | 0 of 3 |
| I58P V99P | 4.01 | 1 of 3 |
| I51S D62V F106S | nd | 0 of 3 |
| D30L I58V | 5.24 | 2 of 3 |
| W53L G100W G103A | 4.66 | 1 of 3 |
| S57V G59P G102P | 5.29 | 2 of 3 |
| G26Q S52G G56W | nd | 0 of 3 |
| H35D N54P Y108G | 5.31 | 3 of 3 |
| H35E G100F | nd | 0 of 3 |
| D30S I58L F106I | 1.92 | 3 of 3 |
| I51E S55W D62C | 5.77 | 1 of 3 |
| S57H D62Y G100W | 4.10 | 3 of 3 |
| G26N A61L Y105S | 4.86 | 3 of 3 |
| Y32K W53T S55P | 4.73 | 2 of 3 |
| A33R H35E S55E | nd | 0 of 3 |
| Y60K G100V D107P | 5.55 | 2 of 3 |
| H35P G56P I58M | nd | 0 of 3 |
| D31H S55L G100Q | nd | 0 of 3 |
| T28H G102A Y108N | nd | 0 of 3 |
| G26H I51K | 4.12 | 2 of 3 |
| F29H S52Y S55T | nd | 0 of 3 |
| T28P S57M R101D | nd | 0 of 3 |
| G59K D62S G102A | 4.62 | 1 of 3 |
| G50T I58W K65L | 5.41 | 1 of 3 |
| H35P G59H | nd | 0 of 3 |
| S52P S57K G59A | 5.11 | 2 of 3 |
| F29A D31E Y32Q | 4.78 | 3 of 3 |
| A33D Y60C Y108V | nd | 0 of 3 |
| D31C Y32S I51T | 3.37 | 1 of 3 |
| H35S R101N D107S | 4.46 | 1 of 3 |
| H35R I51G F106D | nd | 0 of 3 |
| I51N V64E K65H | 4.29 | 2 of 3 |
| G59F A61K K65W | 4.49 | 1 of 3 |
| D31Q G56E Y60Q | 1.02 | 3 of 3 |
| S57V A61E G102F | nd | 0 of 3 |
| D30W A61S G102H | 3.79 | 1 of 3 |
| T28M F29L Y108R | 1.05 | 3 of 3 |
| G50T S55Y | nd | 0 of 3 |
| F27H S63L F106D | 4.10 | 1 of 3 |
| F29V A33T G50E | 4.75 | 1 of 3 |
| T28R D30T M34H | 4.12 | 3 of 3 |
| T28A W53R G104S | nd | 0 of 3 |
| G50W I58R Y108Q | 3.81 | 1 of 3 |